Measured values published in PMC6377692 (EJNMMI Research, 2019).

Chains of the proteins cited; added tags and fusions are not shown. Residues count along the entry.
UniProt F8V479, 24-463: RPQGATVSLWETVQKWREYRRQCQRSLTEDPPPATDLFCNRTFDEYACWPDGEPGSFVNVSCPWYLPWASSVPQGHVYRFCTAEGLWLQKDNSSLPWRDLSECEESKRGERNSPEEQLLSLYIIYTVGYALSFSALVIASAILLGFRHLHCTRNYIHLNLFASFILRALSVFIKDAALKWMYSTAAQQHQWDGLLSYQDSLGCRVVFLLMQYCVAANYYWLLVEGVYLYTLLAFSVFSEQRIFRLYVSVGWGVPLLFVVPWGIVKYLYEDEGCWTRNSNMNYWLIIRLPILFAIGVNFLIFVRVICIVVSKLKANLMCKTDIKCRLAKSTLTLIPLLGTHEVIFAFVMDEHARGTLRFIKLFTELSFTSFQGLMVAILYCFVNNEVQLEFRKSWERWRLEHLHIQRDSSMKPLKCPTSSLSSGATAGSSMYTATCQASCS
UniProt P30082, 27-485: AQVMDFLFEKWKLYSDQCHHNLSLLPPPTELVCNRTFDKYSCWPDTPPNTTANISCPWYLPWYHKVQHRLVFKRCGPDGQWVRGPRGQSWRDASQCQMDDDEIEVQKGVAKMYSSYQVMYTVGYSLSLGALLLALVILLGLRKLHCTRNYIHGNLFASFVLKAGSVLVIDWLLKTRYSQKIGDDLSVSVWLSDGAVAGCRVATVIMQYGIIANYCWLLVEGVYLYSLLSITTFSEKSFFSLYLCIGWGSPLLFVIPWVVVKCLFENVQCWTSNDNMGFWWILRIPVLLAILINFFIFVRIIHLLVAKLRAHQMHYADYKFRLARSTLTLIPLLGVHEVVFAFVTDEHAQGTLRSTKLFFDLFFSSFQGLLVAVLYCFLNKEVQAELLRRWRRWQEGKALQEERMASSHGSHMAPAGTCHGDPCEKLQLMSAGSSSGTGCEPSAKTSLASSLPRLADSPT

Tests used:
[1] = molecular target: T1, cynomolgus monkey GLP1R (Macaca fascicularis, UniProt F8V479); test: functional cAMP assay in transfected HEK293 cells; assay type: cell-based
T1 construct: expressed in transfected cells; host or cells: HEK293
Method: (§1) The same assay was performed for GLP-1R to assess cross-binding. Details of the assay procedure are described in Additional file 1 and have also been described elsewhere.
(§2) cAMP content of cells was determined using a kit from Cisbio Corp. (cat. no. 62AM4PEJ) based on HTRF (Homogenous Time Resolved Fluorescence). For preparation, cells were split into T175 culture flasks and grown overnight to near confluency in medium (DMEM / 10% FBS). Medium was then removed and cells washed with PBS lacking calcium and magnesium, followed by proteinase treatment with accutase (Sigma-Aldrich cat. no. A6964). Detached cells were washed and resuspended in assay buffer (1 x HBSS; 20 mM HEPES, 0.1% BSA, 2 mM IBMX) and cellular density determined. They were then diluted to 400000 cells/ml and 25 µl-aliquots dispensed into the wells of 96-well plates. For measurement, 25 µl of test compound in assay buffer was added to the wells, followed by incubation for 30 minutes at room temperature. After addition of HTRF reagents diluted in lysis buffer (kit components), the plates were incubated for 1 hr, followed by measurement of the fluorescence ratio at 665 / 616 nm.

[2] = molecular target: T2, rat GCGR (Rattus norvegicus, UniProt P30082); test: functional cAMP assay in transfected HEK293 cells; assay type: cell-based
T2 construct: host or cells: HEK293
Method: as §1
as §2, with “temperature.” for “temperature. After addition of HTRF reagents diluted in lysis buffer (kit components), the plates were incubated for 1 hr, followed by measurement of the fluorescence ratio at 665 / 616 nm.”

[3] = molecular target: T3, rat GLP1R (Rattus norvegicus, UniProt P32301); test: functional cAMP assay in transfected HEK293 cells; assay type: cell-based
T3 construct: expressed in transfected cells; host or cells: HEK293
T3 sequence (P32301 22-463): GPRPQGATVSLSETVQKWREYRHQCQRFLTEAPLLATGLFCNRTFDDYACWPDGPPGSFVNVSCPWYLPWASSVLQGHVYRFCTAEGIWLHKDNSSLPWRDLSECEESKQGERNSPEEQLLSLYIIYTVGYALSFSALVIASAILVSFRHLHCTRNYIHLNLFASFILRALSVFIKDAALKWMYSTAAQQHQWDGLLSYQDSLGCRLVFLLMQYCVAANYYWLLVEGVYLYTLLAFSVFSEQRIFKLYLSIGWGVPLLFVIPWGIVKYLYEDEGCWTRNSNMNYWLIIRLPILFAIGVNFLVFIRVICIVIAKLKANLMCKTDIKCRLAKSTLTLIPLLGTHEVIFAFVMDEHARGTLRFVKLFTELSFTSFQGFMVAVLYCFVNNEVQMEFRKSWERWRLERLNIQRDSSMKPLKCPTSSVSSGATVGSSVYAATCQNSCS
Method: as §1
as §2, with “temperature.” for “temperature. After addition of HTRF reagents diluted in lysis buffer (kit components), the plates were incubated for 1 hr, followed by measurement of the fluorescence ratio at 665 / 616 nm.”

[4] = rat in vivo distribution (ex vivo organ counting); design: species or system Sprague Dawley rats; conditions: male, Sprague Dawley, liver, iv, 1.3 ug/kg, total radioactivity, i.v., read-out: retention in the liver
Method: The in vivo distribution over time was performed to identify the optimal time point for an in vivo blocking study and to calculate the residence time for dosimetry (see detail below). Thus, measurement at more time points was prioritized over repetitions at individual time points.
The animals were kept at a constant temperature (25 °C) and humidity (50%) in a 12-h light-dark cycle. Food and water were provided ad libitum.
Each radiotracer was administered into the tail vein of conscious animals as a bolus in 0.5–0.6 mL of PBS (pH 7.4) as vehicle. […] Given the constraints of the specific radioactivity for each radioligand, the dosing was designed to minimize the given peptide mass (in order to stay below mass effect levels) while still yielding enough radioactive signal for well counter measurements.
At pre-determined post injection time points (5, 10, 20, 40, 60, 90, 120, and 180 min), two animals per each point were euthanized by CO2. Tissues were immediately extracted and weighed, and the radioactive content was measured in the well counter. […] The well counter readings were decay corrected to the time of injection and the mass of the extracted tissues and expressed as Bq/cc. […]

[5] = molecular target: T4, GCGR in rat liver sections (Rattus norvegicus, UniProt P30082); test: in vitro autoradiography, liver sections; assay type: binding, Sprague Dawley rat
T4 construct: from tissue; host or cells: frozen Sprague Dawley rat liver sections
Method: Liver and pancreas tissues were collected post-mortem from cynomolgus monkeys (NHP) and Sprague Dawley rats. The use of animal tissues collected post-mortem was approved by the Animal Research Ethical Committee of the Uppsala Region and was performed according to the Uppsala university guidelines on animal experimentation (UFV 2007/724).
Sections were added in duplicates in each individual assay, and each experiment was repeated at least three times with different batches of radioligand, except for rat sections that were only performed in one assay.
After incubation, the sections were washed three times in 150 mL PBS. Sections were carefully dried at 37 °C and then exposed against a digital phosphorimager plate overnight together with a 10-μl droplet of radioactive reference (cross-calibrated against a gamma counter) on an absorbent paper attached to an object glass. The phosphor imager plates were scanned using a Cyclone Plus Phosphor imager (Perkin Elmer) at 600 dpi, and the resulting autoradiograms analyzed by ImageJ software (NIH, Bethesda). Pixel values in counts/mm^2 were converted to Bq/mm^2 by the included reference. Bq/mm^2 was further converted to fmol/mm^2 by the known specific radioactivity (fmol/Bq) of each batch of radiopharmaceutical.

[6] = rat in vivo competition with precursor peptide; design: species or system Sprague Dawley rats; conditions: male, Sprague Dawley, total radioactivity, tracer alone, 40 min (S01) or 60 min (S02) p.i., S02 baseline stated for liver and spleen, read-out: baseline binding in the liver
Method: A competition study with each respective radiotracer precursor peptide was performed to investigate in vivo selectivity in selected tissues (the blood, heart, lung, liver, pancreas, spleen, kidney, muscle, and bone marrow).
Animals in each group (n = 4 for each radioligand) were co-injected with 1 mg/kg of either unlabelled DO3A-S01-GCG or -DO3A-S02-GCG peptide to determine the fraction of binding in each tissue which was receptor mediated.
The time point of euthanasia for each radiotracer was determined based on liver-to-blood ratio obtained from the biodistribution study above, as well as the radionuclide half-life and known radiotracer precursor half-life in blood plasma. Tissue resection and analysis of radioactive uptake in each tissue (expressed as SUV) were performed and analyzed as described above.

[7] = data not shown

SMILES	EC50 [1] [nM]	EC50 [2] [nM]	EC50 [3] [nM]	SUV [4] [SUV]	inhibition at 10 µM ([5]; 10 μM precursor, n = 1, read-out: inhibition of tracer binding to liver sections by co-incubation with own precursor peptide) [%]	inhibition of tracer binding to liver sections by co-incubation with GCG ([5]; 5–10 nM tracer, 10 μM GCG, 60 min RT, n = 1) [%]	SUV [6] [SUV]	exposure [7] [ng·h/mL]	plasma t½ [7] [min]
CC[C@H](C)[C@H](NC(=O)[C@H](Cc1ccccc1)NC(=O)[C@H](CCC(=O)O)NC(=O)[C@H](CCC(N)=O)NC(=O)[C@H](C)NC(=O)[C@H](CCCNC(=N)N)NC(=O)[C@H](CCCNC(=N)N)NC(=O)[C@H](CO)NC(=O)[C@H](CCC(=O)O)NC(=O)[C@H](CC(C)C)NC(=O)[C@H](CCC(N)=O)NC(=O)[C@H](CCCCN)NC(=O)[C@H](CO)NC(=O)[C@H](Cc1ccc(O)cc1)NC(=O)[C@H](CC(=O)O)NC(=O)[C@H](CO)NC(=O)[C@@H](NC(=O)[C@H](Cc1ccccc1)NC(=O)[C@@H](NC(=O)CNC(=O)[C@H](CCC(N)=O)NC(=O)[C@H](CO)NC(=O)[C@@H](N)Cc1cscn1)[C@@H](C)O)[C@@H](C)O)C(=O)N[C@@H](CCC(=O)O)C(=O)N[C@@H](Cc1c[nH]c2ccccc12)C(=O)N[C@@H](CC(C)C)C(=O)N[C@@H](CC(C)C)C(=O)N[C@@H](C)C(=O)NCC(=O)NCC(=O)N1CCC[C@H]1C(=O)N[C@@H](CCC(=O)O)C(=O)N[C@@H](CO)C(=O)NCC(=O)N[C@@H](C)C(=O)N1CCC[C@H]1C(=O)N1CCC[C@H]1C(=O)N1CCC[C@H]1C(=O)N[C@@H](CO)C(=O)N[C@@H](CSCCS(=O)(=O)CCN1CCN(CC(=O)O)CCN(CC(=O)O)CCN(CC(=O)O)CC1)C(N)=O [DO3A-S02-GCG]	1.98	0.0476	3.96						
CC[C@H](C)[C@H](NC(=O)[C@H](Cc1ccccc1)NC(=O)[C@H](CCC(=O)O)NC(=O)[C@H](CCC(N)=O)NC(=O)[C@H](C)NC(=O)[C@H](CCCNC(=N)N)NC(=O)[C@H](CCCNC(=N)N)NC(=O)[C@H](CO)NC(=O)[C@H](CCC(=O)O)NC(=O)[C@H](CC(C)C)NC(=O)[C@H](CCC(N)=O)NC(=O)[C@H](CCCCN)NC(=O)[C@H](CO)NC(=O)[C@H](Cc1ccc(O)cc1)NC(=O)[C@H](CC(=O)O)NC(=O)[C@H](CO)NC(=O)[C@@H](NC(=O)[C@H](Cc1ccccc1)NC(=O)[C@@H](NC(=O)CNC(=O)[C@H](CCC(N)=O)NC(=O)[C@H](CO)NC(=O)[C@@H](N)Cc1cscn1)[C@@H](C)O)[C@@H](C)O)C(=O)N[C@@H](CCC(=O)O)C(=O)N[C@@H](Cc1c[nH]c2ccccc12)C(=O)N[C@@H](CC(C)C)C(=O)N[C@@H](CC(C)C)C(=O)N[C@@H](C)C(=O)NCC(=O)NCC(=O)N1CCC[C@H]1C(=O)N[C@@H](CCC(=O)O)C(=O)N[C@@H](CO)C(=O)NCC(=O)N[C@@H](C)C(=O)N1CCC[C@H]1C(=O)N1CCC[C@H]1C(=O)N1CCC[C@H]1C(=O)N[C@@H](CO)C(=O)N[C@@H](CSCCS(=O)(=O)CCN1CCN(CC(=O)O)CCN(CC(=O)O)CCN(CC(=O)O)CC1)C(N)=O [[^68Ga]Ga-DO3A-S02-GCG, metal not drawn]				< 1	> 50	> 50	0.5	325	7.2
